Compounds with a hit are over-represented: about 2.1% of the library has one in this group of screens.
Nrf2 inh: inhibitors of Nrf2 signaling; A549 ARE-Fluc reporter, luciferase luminescence, 18-24 h; Potency, µM (doses to about 46 µM), without a hit: at the top dose activity change, negative = inhibition, hits mostly inhibitors; actives 2.1% (n = 360,000); note: potency is the fitted concentration of half-maximal effect; % is set by controls: 0 for no effect and ±100 for the full control effect; nearly all actives have a fitted effect of over 60% in size
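A549 ARE_Fluc cells (5000/well, 5% FBS OPTI-MEM) pre-incubated 2 h, then treated with compounds 18-24 h at 37C/5% CO2 in concentration-response. CellTiter-Fluor viability read first; BugLite luciferase luminescence after 15 min at room temperature gives Nrf2 activity.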
Nrf2 ARE act: activators of Nrf2 (ARE) signaling | AREc32 ARE-luciferase reporter (MCF7-derived line), luminescence, 24 h | Potency, µM (titrated, usually from 46.1 µM), for inactives: at the top dose activation, hits mostly activators | actives 0.31% (n = 410,000) | AID 624171; note: potency is the fitted concentration of half-maximal effect; % of control where 0% means no effect; nearly all actives have a fitted effect of over 65% in size
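AREc32_Fluc, 1000 cells/well, OPTI-MEM + 5% FBS, o/n 37 deg C 5% CO2; 23 nL cpd by pin tool, 24 hr; Steady-Glo 30 min RT, luminescence.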
PTAP TSG101 blk: blocks PTAP/TSG101 interaction to inhibit HIV-1 budding; Q99816; Fluorescence polarization, FITC-PTAP peptide / Tsg101 binding; Potency, µM (titrated, usually from 115 µM), for inactives: at the highest dose activity change, negative = inhibition, actives largely listed as inhibitors; 340,000 tested, under 10 active; active = well fitted inhibition curve with a large enough effect in the main read-out, with a control signal flat, not every such curve was filed as active; inconclusive = small, poorly fitted or top-dose-only effect, or effect the other way, or a change in a side signal; inactive = no such curve, though single readings can be large or run the other way; note: potency is the fitted concentration of half-maximal effect; % of control where 0% means no effect
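Fluorescence polarization binding of Tsg101 binding domain (10 uM final) to FITC-labeled PTAP peptide (50 nM final) in HEPES pH 7.5 buffer with NaCl, Tween 20, EDTA, TCEP. Compounds added before peptide; binding 20 min at RT.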
miR-21 FLuc: miR-21 reporter, rising signal. HeLa miR-21 FLuc reporter, luciferase, 48 h. Potency, µM (titrated, usually from 38.3 µM), without a hit: at the top dose reporter change, positive = more light. 340,000 tested, under 10 active. AID 2288; active = well fitted rising curve with a large enough effect; inconclusive = small, poorly fitted or top-dose-only effect; inactive = no such curve, though single readings can be large or run the other way;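 also: % of control where 0% means no effect; miR-21 action dims this reporter so a rising signal means less miR-21 action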
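Compounds were titrated across several concentrations (up to approximately 40 uM) and incubated 48 hours with HeLa miR-21-FLuc reporter cells (miR-21 target sequence downstream of FLuc, endogenous miR-21). Readout was firefly luciferase luminescence after lytic detection reagent.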
Glioma ERSR ind: ER stress response induction in glioma; actives 0.02% (n = 420,000); Potency, µM, without a hit: at the highest dose activation, usual class: activators; U87-MG GRP78 promoter luciferase reporter, 16 h; note: potency is the fitted concentration of half-maximal effect; series mostly up to about 76 µM; % of control where 0% means no effect; nearly all actives have a fitted effect of over 35% in size
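ERSR induction read as luciferase luminescence (Bright-Glo, 10 min at room temperature) in stably transfected human U87-MG glioma cells exposed to compounds for 16 h, using GRP78 as sensor.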
A549 tox: counter-screen for Nrf2 inhibitors: cytotoxicity in A549 cells; A549 ARE-Fluc cells, CellTiter-Fluor viability, 18-24 h; Potency, µM (doses to about 46 µM), without a hit: top-dose activity change, negative = cytotoxicity, most hits filed as inhibitors; actives 0.16% (n = 390,000); note: potency is the fitted concentration of half-maximal effect; % is set by controls: 0 for no effect and ±100 for the full control effect
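A549 ARE-Fluc cells in 5% FBS OPTI-MEM, 5000 cells/well, rested 2 h then exposed to compounds in concentration-response for 18-24 h at 37 °C. Viability by CellTiter-Fluor fluorescence (Ex 405/Em 525) after 30 min; luciferase luminescence (BugLite, 15 min, RT) read afterwards.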
Active calls of the source: *; ? = inconclusive; nt = not tested or not shown; [ ] = remark or other dose. Unless noted, calls come from the whole dose curve; as a rule, active = well fitted curve in the direction sought with a large enough effect; inconclusive = small, poorly fitted or top-dose-only effect, or another doubt; inactive = no such curve, though single readings can be large; an effect the other way counts as inactive or inconclusive.

1) Cc1ccc(-c2csc(NC(=O)c3ccc4c(=O)n5c(nc4c3)CCCCC5)n2)cc1
2) COc1ccc(CNC(=O)c2ccc3c(=O)n4c(nc3c2)CCCCC4)cc1OC
3) Cc1nc2cc(NC(=O)[C@@H]3C[C@@H](Sc4ccccn4)CN3Cc3ccccc3)ccc2s1
4) COc1ccccc1C1CN(Cc2c(C)nn(C)c2Cl)Cc2ccccc2O1 (configuration not stated)
5) CCC1CN(CCNC(=O)c2cccnc2OC)Cc2cc(OC)ccc2O1 (configuration not stated)
6) Cc1c(C(=O)N2CCC(C)CC2)sc2ncnc(N(C)c3ccccc3)c12
7) Cc1c(C(=O)N2CCC(Cc3ccccc3)CC2)sc2ncnc(N3CCC(C)CC3)c12
8) COCCn1c(SCC(=O)/C=C2\N(C)c3ccccc3C2(C)C)nnc1-c1ccncc1
Compound,1,2,3,4,5,6,7,8
PTAP TSG101 blk,0.4%,-3.4%,nt,nt,nt,-3.7%,6.5%,-4.8%
Glioma ERSR ind,-2.7%,-4.3%,-2.1%,-5.4%,-3.9%,-7.8%,-2.8%,-3.8%
miR-21 FLuc,17.1%,nt,nt,nt,nt,-11.5%,0.9%,3.0%
A549 tox,11.8%,-13.9%,nt,nt,nt,-8.7%,0.9%,-27.3%
Nrf2 inh,5.17µM*,6.51µM*,nt,nt,nt,18.4µM*,-3.8%,23.1µM*
Nrf2 ARE act,2.6%[9.22 µM],0.2%,nt,nt,nt,-0.1%,0.1%,-0.8%

9) CN1/C(=C\C(=O)CSc2nnc(N)s2)C(C)(C)c2ccccc21
10) COc1ccc(Nc2nnc(SCC(=O)/C=C3/N(C)c4ccccc4C3(C)C)s2)cc1
11) COc1ccc(N2CCN(C(=O)c3cccc(-n4c(C)nc5cccnc54)c3)CC2)cc1
12) Cc1nc2cccnc2n1-c1cccc(C(=O)N2CCN(c3ccc(Cl)cc3)CC2)c1
13) N#C/C(=N\Nc1cccc(F)c1)C(=O)C1CC1
14) O=c1[nH][nH]cc1C=Nc1ccc(Cl)cc1Cl
15) O=c1[nH][nH]cc1C=Nc1ccccc1Cl
16) O=c1[nH][nH]cc1C=Nc1ccccc1O
Compound,9,10,11,12,13,14,15,16
PTAP TSG101 blk,-7.2%,-5.3%,nt,nt,-0.2%,-4.6%,0.9%,-0.5%
Glioma ERSR ind,-1.1%,1.9%,-4.0%,-2.8%,-4.1%,-3.4%,-1.1%,-5.6%
miR-21 FLuc,1.2%,?,10.6%,?,-17.3%,0.0%,2.0%,-6.2%
A549 tox,-10.0%,?,-0.6%,-19.9%,?,0.4%,5.6%,-10.0%
Nrf2 inh,-6.2%,23.1µM*,16.1%,18.4µM*,20.6µM*,5.0%,14.9%,24.9%
Nrf2 ARE act,0.2%,6.5%,-0.1%,-0.9%,0.0%,-0.5%,0.2%,12.6µM*

17) O=c1[nH][nH]cc1C=Nc1cc(Cl)ccc1O
18) N#Cc1nc(NC2CCCC2)c2ncn(-c3cc(F)cc(F)c3)c2n1
19) CN(C)c1ccc(/C=C2\C=Cc3ccccc32)cc1Cl
20) CC1CCc2onc(C(=O)N3CCN(c4ccc(Cl)cc4)CC3)c2C1 (configuration not stated)
21) CC1CCc2onc(C(=O)Nc3ccc(Cl)cc3)c2C1 (configuration not stated)
22) CCCCCCC[n+]1ccc(/C=C/c2c(C)[nH]c3ccccc23)c2ccccc21
23) CCN=c1scc(C)n1/N=C/c1ccsc1
24) CCN1/C(=C/c2ccc3cc(C)ccc3[n+]2CC)Sc2cc(C)ccc21
Compound,17,18,19,20,21,22,23,24
PTAP TSG101 blk,-5.5%,nt,nt,nt,nt,nt,-5.7%,14.0%
Glioma ERSR ind,0.8%,nt,6.5%,-5.2%,1.0%,-11.8%,-0.4%,-11.1%
miR-21 FLuc,9.3%,nt,nt,6.8%,-50.1%,nt,-58.4%,14.6%
A549 tox,-0.6%,-7.7%,nt,-4.0%,6.7%,nt,-1.7%,?
Nrf2 inh,?,-4.5%,nt,20.6µM*,-26.4%,nt,?,4.61µM*
Nrf2 ARE act,12.6µM*,nt,nt,-0.2%,0.7%,nt,7.08µM*,-3.0%

Shown as a hit in Nrf2 ARE act, among the entries above:
nr	molecule	PTAP TSG101 blk	Glioma ERSR ind	miR-21 FLuc	Nrf2 ARE act
16	O=c1[nH][nH]cc1C=Nc1ccccc1O	-0.5%	-5.6%	-6.2%	12.6µM*
17	O=c1[nH][nH]cc1C=Nc1cc(Cl)ccc1O	-5.5%	0.8%	9.3%	12.6µM*
23	CCN=c1scc(C)n1/N=C/c1ccsc1	-5.7%	-0.4%	-58.4%	7.08µM*

Following part:
25) CCN1/C(=C/c2ccc3cc(C)ccc3[n+]2C)Sc2ccc3sccc3c21
26) CS(=O)(=O)c1cc([N+](=O)[O-])c(Sc2nc3ccccc3[nH]2)c([N+](=O)[O-])c1
27) CC(C)CC(=O)N1C/C=C\C[C@@H](c2ccc(Cl)cc2)N(Cc2ccc(Cl)cc2)C(=O)[C@@H]1Cc1ccccc1
28) N#Cc1ccc(-c2nc3cc(Cl)ccc3c(=O)n2O)cc1
29) O=c1c2ccc(Cl)cc2nc(-c2cccc(C(F)(F)F)c2)n1O
30) CNc1c(Br)cc(/C=C2\C=C(C(O)c3cc(Br)c(NC)c(Br)c3)c3ccccc32)cc1Br (configuration not stated)
31) Cc1ccc(NC(=O)NC(C)c2c(-n3cccc3)sc(C)c2C)cc1F (configuration not stated)
32) Cc1sc(-n2cccc2)c(C(C)NC(=O)Nc2cccc(C(F)(F)F)c2)c1C (configuration not stated)
Compound,25,26,27,28,29,30,31,32
PTAP TSG101 blk,-0.5%,-3.3%,nt,-8.2%,-3.6%,nt,nt,nt
Glioma ERSR ind,-9.7%,-11.4%,0.8%,-5.6%,-4.1%,-1.7%,nt,nt
miR-21 FLuc,?,?,nt,9.6%,?,nt,?,?
A549 tox,-25.1%,23.1µM*,nt,-13.4%,-28.3%,nt,?,-19.4%
Nrf2 inh,18.4µM*,nt,nt,-19.0%,23.1µM*,nt,23.1µM*,?
Nrf2 ARE act,0.1%,?,nt,-1.9%,1.3%,nt,-0.1%,9.3%

33) CN=Cc1nc(-c2ccccc2)oc1O
34) O=C(O)c1ccc(N=Cc2nc(-c3ccco3)oc2O)cc1
35) Cc1ccc2nc(-c3ccc(O)cc3)oc2c1
36) Oc1oc(-c2ccco2)nc1C=Nc1ccccc1
37) Cc1ccc(-c2nc(C=Nc3ccc(O)cc3)c(O)o2)cc1
38) COc1cccc(-c2ccnc(-n3ncc(C(=O)NCC(C)(C)CN(C)C)c3C)n2)c1
39) CCOC(=O)CC(C)(C)/C(C)=N/Nc1ccc([N+](=O)[O-])cc1[N+](=O)[O-]
40) COc1cccc(/C=C/c2ccc3cccc(O)c3n2)c1OC
Compound,33,34,35,36,37,38,39,40
PTAP TSG101 blk,-2.2%,3.4%,-1.4%,-2.2%,?,nt,-2.0%,-1.5%
Glioma ERSR ind,-0.4%,0.7%,-6.3%,2.8%,8.9%,-2.4%,-1.5%,?
miR-21 FLuc,-46.3%,-0.5%,14.8%,-9.0%,3.0%,nt,-2.4%,-17.5%
A549 tox,?,-2.5%,0.6%,-2.3%,?,nt,?,-4.1%
Nrf2 inh,?,-14.8%,6.51µM*,1.4%,15.9%,nt,18.4µM*,0.0%
Nrf2 ARE act,0.2%,-0.3%,-0.1%,12.6µM*,6.31µM*,nt,5.8%,?

41) Oc1cccc(/C=C/c2ccc3cccc(O)c3n2)c1
42) COc1ccc(/C=C/c2ccc3cccc(O)c3n2)c(OC)c1OC
43) COc1ccc(N2C(=O)[C@@H]3C[C@H]2CN3Cc2ccc3nccnc3c2)cc1Cl
44) N#Cc1c(C(F)(F)F)cc(-c2ccc(F)cc2)[nH]c1=O
45) N#Cc1c(C(F)(F)F)cc(-c2ccc(Cl)cc2)[nH]c1=O
46) CN(C)c1oc(/C=C/c2ccccc2)nc1C#N
47) Oc1ccc(N2CCN(c3ncnc4sc(-c5ccccc5)cc34)CC2)cc1
Compound,41,42,43,44,45,46,47
PTAP TSG101 blk,-4.4%,-5.3%,nt,-5.1%,-4.3%,-2.1%,-1.9%
Glioma ERSR ind,?,?,-2.1%,2.6%,-4.2%,6.3%,-4.1%
miR-21 FLuc,3.3%,-16.7%,nt,-1.6%,0.9%,-76.4%,-1.1%
A549 tox,-3.4%,-7.8%,nt,-8.5%,-25.5%,?,-15.7%
Nrf2 inh,-3.8%,?,nt,?,16.4µM*,?,20.6µM*
Nrf2 ARE act,4.47µM*,22.4µM*,nt,0.1%,0.6%,7.94µM*,10.6%
